Consider 1 substance from US10005829B2, “Synthetic linear apelin mimetics for the treatment of heart failure” (priority 2012, dated 2018).

The data set can be described thus: Surrogate activity-based plasma stability assay. The data set is classed as in vitro ADME. Particulars: 5% rat plasma, 37° C., EC50 at t0 and t24 hrs; Table 2.

Regarding “Albumin-TPA-O2Oc-O2Oc-O2Oc-O2Oc-Q-R-P-R-L-a-H-K-G-P-f-a-f-OH [Example 64]”, the “Surrogate activity-based Plasma stability t½” value was over 16.67 h.
